The chains behind the UniProt entries cited, without tags or fusion partners.
UniProt P50406, whole entry: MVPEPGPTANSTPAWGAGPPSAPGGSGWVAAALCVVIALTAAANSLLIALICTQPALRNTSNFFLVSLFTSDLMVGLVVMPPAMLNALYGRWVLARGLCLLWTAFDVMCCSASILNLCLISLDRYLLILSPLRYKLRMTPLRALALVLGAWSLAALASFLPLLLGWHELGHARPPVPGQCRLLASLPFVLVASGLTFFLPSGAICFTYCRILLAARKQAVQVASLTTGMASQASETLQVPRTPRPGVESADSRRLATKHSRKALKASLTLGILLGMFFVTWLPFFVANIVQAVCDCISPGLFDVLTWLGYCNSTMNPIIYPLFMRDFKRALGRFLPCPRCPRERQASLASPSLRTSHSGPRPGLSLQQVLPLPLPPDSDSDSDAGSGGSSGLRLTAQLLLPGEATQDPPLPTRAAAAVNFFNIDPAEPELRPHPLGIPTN

In patent US7084169B2, “Aminoalkoxyindoles and methods of use” (Roche Palo Alto LLC, priority 2002, dated 2006):

Biological target: recombinant human 5-HT6 receptor (Homo sapiens, UniProt P50406)
Assay: Radioligand binding studies, competition for [3H]LSD binding in HEK293 cell membranes
Details: [3H]LSD (5 nM), membranes of HEK293 cells stably expressing recombinant human 5-HT6 receptor, pH 7.4, 37° C., 60 min; tested form: HCl
Procedure: The binding activity of compounds of this invention in vitro was determined as follows. Duplicate determinations of ligand affinity are made by competing for binding of [^3H]LSD in cell membranes derived from HEK293 cells stably expressing recombinant human 5-HT6 receptor.
All determinations were made in assay buffer containing 50 mM Tris-HCl, 10 mM MgSO4, 0.5 mM EDTA, 1 mM ascorbic acid, pH 7.4 at 37° C., in a 250 microliter reaction volume. Assay tubes containing [^3H] LSD (5 nM), competing ligand, and membrane were incubated in a shaking water bath for 60 min. at 37° C., filtered onto Packard GF-B plates (pre-soaked with 0.3% PEI) using a Packard 96 well cell harvester and washed 3 times in ice cold 50 mM Tris-HCl. Bound [^3H] LSD was determined as radioactive counts per minute using Packard TopCount.
Displacement of [3H]LSD from the binding sites was quantified by fitting concentration-binding data to a 4-parameter logistic equation:
[formula] where Hill is the Hill slope, [ligand] is the concentration of competing radioligand and IC50 is the concentration of radioligand producing half-maximal specific binding of radioligand. The specific binding window is the difference between the Bmax and the basal parameters.

**Q.** Which “5-HT6 affinity values (pKi)” value does the source give for `O=S(=O)(c1cc(Cl)ccc1Cl)c1c[nH]c2c(OCCN3CCCC3)cccc12` here?
**A.** 8.2
